Screening results from PubChem.
In the library only some 1.7% were active in any assay of this set; here they are far more common.
CAL PDZ FP-1 = inhibitors of human CAL PDZ peptide binding | AID 602252 | inhibition, % at 24.9 µM | hit rate 0.92% among 300,000 | purified CAL PDZ, TMR-peptide fluorescence polarization, 1 h;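 active means mean inhibition of at least 30% with at least half of replicates also reaching 30%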
DYRK1A inh = blocks rat Dyrk1A kinase activity; hit rate 0.43% among 310,000; AID 504441; inhibition, % at 12.5 µM; ADP-Glo luminescence, NFATc1 peptide; Q63470; in the data active means inhibition above about 50%
CAL PDZ FP-2 = blocks peptide binding to human CAL PDZ domain; purified CAL PDZ, TMR-peptide fluorescence polarization, 1 h; inhibition, % at 20 µM; hit rate 0.02% among 330,000;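 active means highest replicate inhibition of at least 40%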
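Assay system – tagged CAL PDZ protein CerCALP, purified · Timing – 1 h at RT · Compound – single point, 20 µM · Measured by – fluorescence polarization from S- and P-plane intensities, G-factor corrected · Evaluation – inhibition from polarization loss · Probe or stimulus – TMR reporter peptide T*-PRC34 · Buffer or medium – pH 7.4 phosphate-saline buffer, reducing agent, detergent, IgG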
Yeast UUG start = yeast start codon fidelity modulation; AID 602363; activity score, % at 18.7 µM; S. cerevisiae UUG-firefly luciferase reporter, luminescence/redox ratio; 0.13% of 350,000 active;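 active means replicate mean at a twofold rise or more, about +100% in these data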;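 further: firefly luciferase made from a UUG start codon reports start codon fidelity; reporter light over untreated wells divided by growth signal over untreated wells; some hits fall short of that in this replicate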
CDK5 inh = blocks human CDK5/p35 kinase activity; Recombinant CDK5/p35, ADP-Glo luminescence, 60 min; inhibition, % at 10 µM; hit rate 0.01% among 330,000;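 active means highest replicate inhibition of at least 50% and at least 75% of replicates reaching 50%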
dFosB act = activators of mouse delta FosB homodimer | P13346 | purified delta FosB, TAMRA-CDK5 oligo fluorescence polarization; percent of positive-control signal above neutral wells | activation, % at 25 µM | hit rate 0.99% among 340,000;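 active means mean activation above about 17%, with every replicate also reaching it, limit read from the data, passing the limit was not always enough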
Large screens that a line does not name were inactive.

CCC(C)NC(=O)C1CCN(c2nc(OC)nc(OC)n2)CC1 (configuration not stated)	none
CCC(C)(C)NC(=O)C1CCN(c2nc(OC)nc(OC)n2)CC1	CAL PDZ FP-1 34.2 (no result: Yeast UUG start)
CCOC(=O)c1ccc(S(=O)(=O)NCC(C)(C)N2CCOCC2)cc1	CAL PDZ FP-1 56.3 (no result: Yeast UUG start)
C[C@H](CO)N1C[C@H](C)[C@@H](CN(C)S(C)(=O)=O)Oc2ccc(NC(=O)Nc3ccc(F)cc3)cc2C1=O	none (no result: CAL PDZ FP-1, DYRK1A inh, CAL PDZ FP-2, CDK5 inh, dFosB act)
CCc1nnc(NC(=O)CSc2nc(-c3ccc(OC)cc3)ns2)s1	CAL PDZ FP-1 51.2
C[C@H](CO)N1C[C@H](C)[C@H](CN(C)S(=O)(=O)c2ccc(F)cc2)Oc2ccc(NS(=O)(=O)c3ccc(F)cc3)cc2C1=O	none (no result: CAL PDZ FP-1, DYRK1A inh, CAL PDZ FP-2, CDK5 inh, dFosB act)
O=C(Cc1ccc(Br)cc1)OCC(=O)c1ccc[nH]1	CAL PDZ FP-1 44.4
COc1ccc(CC(=O)OCC(=O)c2ccc[nH]2)cc1	none
Cn1c(CNC(=O)CCNC(=O)c2cccc(Cl)c2)cc(=O)n(C)c1=O	CAL PDZ FP-1 43.0
N#C[C@@H]1[C@H](c2ccccc2)[C@@H](CO)N1C(=O)CN1CCOCC1	none (no result: CAL PDZ FP-1, DYRK1A inh, CAL PDZ FP-2, CDK5 inh, dFosB act)
COc1cc(NS(=O)(=O)c2ccc(NC(=S)Nc3ccccc3)cc2)nc(OC)n1	CAL PDZ FP-2 110.8
c1ccc(-c2cc(-c3ccc(N4CCOCC4)cc3)nc3ccccc23)cc1	CAL PDZ FP-1 37.0 (no result: CDK5 inh)
COc1nc(NCCc2ccc(OC)c(OC)c2)nc(OC)n1	none
COc1ccc(CCNc2nc(-c3ccncc3)cs2)cc1OC	none (no result: CAL PDZ FP-1, Yeast UUG start)
COc1ccc(CCNc2nc(-c3ccccn3)cs2)cc1OC	CAL PDZ FP-1 48.8 (no result: Yeast UUG start)
COc1ccc(CCNc2c3ccccc3nc3ccccc23)cc1OC	dFosB act 29.6
CCC(=O)Nc1ccc2c(c1)C(=O)N(C)C[C@H](OC)[C@@H](C)CN(C(=O)c1ccc(F)cc1)[C@H](C)CO2	none (no result: CAL PDZ FP-1, DYRK1A inh, CAL PDZ FP-2, CDK5 inh, dFosB act)
Cc1cc(C(=O)Nc2ccc3ccccc3c2)c(C)o1	CAL PDZ FP-1 41.0
CC(=O)c1cccc(NC(=S)Nc2cccc3ccccc23)c1	none
O=C(Nc1ccc2ccccc2c1)c1cccc2ccccc12	CAL PDZ FP-1 69.9
O=C(Nc1ccncc1)c1cccc2ccccc12	none (no result: DYRK1A inh)
CC(=O)c1cccc(NC(=O)c2cccc3ccccc23)c1	CAL PDZ FP-1 52.3
CC(C)CC#Cc1ccc2c(c1)O[C@@H](CN(C)Cc1cccc(F)c1)[C@H](C)CN([C@H](C)CO)S2(=O)=O	none (no result: CAL PDZ FP-1, DYRK1A inh, CAL PDZ FP-2, CDK5 inh, dFosB act)
C[C@@H]1CCCCO[C@H](CN(C)Cc2ccc(C(F)(F)F)cc2)[C@@H](C)CN([C@@H](C)CO)C(=O)c2cc(NC(=O)Nc3ccc4c(c3)OCO4)ccc2O1	none (no result: CAL PDZ FP-1, DYRK1A inh, CAL PDZ FP-2, CDK5 inh, dFosB act)
C[C@H](CO)N1C[C@H](C)[C@@H](CN(C)Cc2ccc(C(F)(F)F)cc2)Oc2c(NS(=O)(=O)c3ccc(F)cc3)cccc2C1=O	none (no result: CAL PDZ FP-1, DYRK1A inh, CAL PDZ FP-2, CDK5 inh, dFosB act)
Cc1ccc(C(C)C)cc1OCCn1cncn1	CAL PDZ FP-1 66.3 (no result: CAL PDZ FP-2)
N=C1/C(=C/c2ccc(-c3cccc(C(=O)O)c3)o2)C(=O)N=C2SC(CC(=O)N3CCOCC3)=NN12	DYRK1A inh 79.2
CC(C)NC(=O)N(C)C[C@@H]1Oc2c(NS(=O)(=O)c3cn(C)cn3)cccc2C(=O)N([C@@H](C)CO)C[C@H]1C	none (no result: CAL PDZ FP-1, DYRK1A inh, CAL PDZ FP-2, CDK5 inh, dFosB act)
COC(=O)C(CC(=O)c1ccc(C)cc1)n1nc(C)cc1C (configuration not stated)	CAL PDZ FP-1 128.7
COC(=O)C(CC(=O)c1ccc(Br)cc1)n1nc(C)cc1C (configuration not stated)	none
O=c1[nH]c(=S)[nH]c2c1C(c1ccc(Br)cc1)c1c([nH]c(=S)[nH]c1=O)O2	CAL PDZ FP-1 31.0 (no result: CAL PDZ FP-2, CDK5 inh)
O=C1CCCC2=C1C(c1ccc(Br)cc1)c1c([nH]c(=S)[nH]c1=O)N2 (configuration not stated)	none
CC(C)CNC(=O)CSc1ccc(S(=O)(=O)N2CCN(C)CC2)cn1	CAL PDZ FP-1 38.8 (no result: DYRK1A inh)
COc1ccc(Cn2c(=O)n(Cc3ccco3)c(=N)c3c4c(sc32)COC(C)(C)C4)cc1	CAL PDZ FP-1 58.7
CC1(C)Cc2c(sc3c2c(=N)n(Cc2ccco2)c(=O)n3Cc2ccc(F)cc2)CO1	none
CCN(CC)CCn1c2c(c(SCC(=O)NCc3ccccc3)nc1=O)CCC2	CAL PDZ FP-1 39.1 (no result: DYRK1A inh)
Cn1c(=S)[nH]c2scc(-c3cccs3)c2c1=O	CAL PDZ FP-1 65.8 (no result: DYRK1A inh, Yeast UUG start)
C=CCn1c(=S)[nH]c2scc(-c3cccs3)c2c1=O	none
COc1ccc(Nc2nc3ccccc3nc2NS(=O)(=O)c2cccs2)cc1	CAL PDZ FP-1 48.4
CC(=O)c1ccc(Nc2nc3ccccc3nc2NS(=O)(=O)c2cccs2)cc1	none
C[C@@H]1CCCCO[C@@H](CN(C)C(=O)c2ccccc2)[C@@H](C)CN([C@@H](C)CO)C(=O)c2cc(NC(=O)Cc3ccccc3)ccc2O1	none (no result: CAL PDZ FP-1, DYRK1A inh, CAL PDZ FP-2, CDK5 inh, dFosB act)
O=[N+]([O-])c1ccc(/C=N/Nc2nc(N3CCCCC3)nc(N3CCCCC3)n2)cc1	none (no result: Yeast UUG start)
O=[N+]([O-])c1ccc(Nc2nc(N/N=C\c3ccc4c(c3)OCO4)nc(N3CCCCC3)n2)cc1	dFosB act 63.1
O=C(Oc1ccc(Cl)c2cccnc12)c1cccnc1	CAL PDZ FP-1 51.8 (no result: CAL PDZ FP-2)
